The values below come from patent US6077680A (The University of Florida, dated 2000).

By UniProt entry, the sequences of proteins in these tests, tags left out. Where a name states a change or a piece, a line headed by the entry shows the natural chain unless it says otherwise.
UniProt P63142, whole entry: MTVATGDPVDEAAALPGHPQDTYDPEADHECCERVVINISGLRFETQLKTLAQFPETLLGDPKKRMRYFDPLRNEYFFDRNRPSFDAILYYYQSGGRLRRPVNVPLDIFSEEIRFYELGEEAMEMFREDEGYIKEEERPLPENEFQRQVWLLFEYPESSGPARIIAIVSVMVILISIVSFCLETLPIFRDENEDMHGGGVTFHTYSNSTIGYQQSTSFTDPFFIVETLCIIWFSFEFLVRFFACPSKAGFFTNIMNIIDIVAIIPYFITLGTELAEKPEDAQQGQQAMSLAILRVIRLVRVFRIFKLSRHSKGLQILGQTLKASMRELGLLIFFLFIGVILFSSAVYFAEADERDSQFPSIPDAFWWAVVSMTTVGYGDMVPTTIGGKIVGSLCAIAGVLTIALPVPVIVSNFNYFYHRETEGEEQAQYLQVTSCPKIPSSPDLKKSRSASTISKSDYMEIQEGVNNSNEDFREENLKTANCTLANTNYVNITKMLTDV
UniProt P22460, whole entry: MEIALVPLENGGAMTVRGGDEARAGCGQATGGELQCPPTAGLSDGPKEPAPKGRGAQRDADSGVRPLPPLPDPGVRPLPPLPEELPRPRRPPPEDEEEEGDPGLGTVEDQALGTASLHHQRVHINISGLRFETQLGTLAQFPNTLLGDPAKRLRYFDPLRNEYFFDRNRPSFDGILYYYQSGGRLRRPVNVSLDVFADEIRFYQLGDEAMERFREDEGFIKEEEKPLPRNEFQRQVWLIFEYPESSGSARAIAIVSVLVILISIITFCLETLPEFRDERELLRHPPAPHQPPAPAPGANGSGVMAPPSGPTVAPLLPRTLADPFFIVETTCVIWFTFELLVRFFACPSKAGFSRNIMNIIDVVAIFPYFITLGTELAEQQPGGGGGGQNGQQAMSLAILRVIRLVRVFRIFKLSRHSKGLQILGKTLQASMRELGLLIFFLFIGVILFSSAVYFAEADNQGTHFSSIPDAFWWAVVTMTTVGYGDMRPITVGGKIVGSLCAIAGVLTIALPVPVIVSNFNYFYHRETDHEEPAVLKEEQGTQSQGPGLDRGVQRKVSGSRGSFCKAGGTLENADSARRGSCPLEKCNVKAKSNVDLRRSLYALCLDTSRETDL
UniProt P15388: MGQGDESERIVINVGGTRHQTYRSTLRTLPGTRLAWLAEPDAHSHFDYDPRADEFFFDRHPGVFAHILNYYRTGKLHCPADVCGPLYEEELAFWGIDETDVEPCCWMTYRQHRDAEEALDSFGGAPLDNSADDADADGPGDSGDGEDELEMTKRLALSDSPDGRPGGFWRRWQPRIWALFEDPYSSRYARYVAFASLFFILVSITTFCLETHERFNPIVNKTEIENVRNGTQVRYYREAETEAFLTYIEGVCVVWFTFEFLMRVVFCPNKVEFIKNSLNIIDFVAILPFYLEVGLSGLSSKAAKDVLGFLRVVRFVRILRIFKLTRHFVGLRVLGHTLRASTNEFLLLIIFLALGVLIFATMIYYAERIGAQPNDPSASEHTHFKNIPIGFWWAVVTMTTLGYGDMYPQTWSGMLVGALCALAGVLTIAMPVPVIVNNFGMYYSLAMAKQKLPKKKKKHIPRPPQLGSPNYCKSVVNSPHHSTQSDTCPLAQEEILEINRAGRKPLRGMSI

The target in one series is Kv1.2 (Rattus norvegicus, UniProt P63142). Put plainly: cell-based.
The next series has as its target IKCa (hKCa4) (Homo sapiens, UniProt O15554). Description: cell-based. The following applies: Kd, small conductance calcium-activated potassium channel in T-cells.
The next series addresses Kv1.5 (Homo sapiens, UniProt P22460). Put plainly: cell-based.
Another series addresses Kv3.1 (Mus musculus, UniProt P15388). Put plainly: cell-based.

Read-outs that look alike come from different tables or passages of the source.

As a reminder, the Kd is the concentration at which binding is half-saturated. Turning to `CC[C@H](C)[C@@H]1NC(=O)[C@@H](NC(=O)[C@H](CO)NC(=O)[C@@H](N)CCCNC(=N)N)CSSC[C@@H](C(=O)O)NC(=O)[C@H]([C@@H](C)O)NC(=O)CNC(=O)[C@@H]2CSSC[C@@H]3NC(=O)[C@H](CCC(N)=O)NC(=O)[C@H](Cc4ccccc4)NC(=O)[C@H](C)NC(=O)[C@H]([C@@H](C)O)NC(=O)[C@H](CSSC[C@H](NC(=O)[C@H](Cc4ccccc4)NC(=O)[C@H](CO)NC(=O)[C@H](CC(C)C)NC(=O)[C@H](CCCNC(=N)N)NC(=O)[C@H](Cc4ccc(O)cc4)NC(=O)[C@H](CN)NC(=O)[C@H](CCSC)NC(=O)[C@H](CO)NC(=O)[C@H](Cc4cnc[nH]4)NC(=O)[C@H](CCCCN)NC3=O)C(=O)N[C@@H](CCCNC(=N)N)C(=O)N[C@@H](CCCCN)C(=O)N[C@@H]([C@@H](C)O)C(=O)N2)NC(=O)[C@H](CCCNC(=N)N)NC(=O)[C@H](CO)NC(=O)[C@H](CCCCN)NC(=O)[C@@H]2CCCN2C(=O)[C@H]([C@@H](C)CC)NC(=O)[C@H]([C@@H](C)O)NC(=O)[C@H](CC(=O)O)NC1=O` [K22DAP], the Kd on Kv1.2 (Kv1.2 (Kd)) was 5 nM; on Kv1.2 (read-out: Kv1.2 (Kd)), 39 nM; at IKCa (hKCa4), 10 nM; on Kv1.5, more than 100 nM; on Kv3.1, more than 100 nM. Moreover, the “t1/2, degradation by trypsin” value in the series with trypsin, chymotrypsin (pH 6.5) was 30 min. Moreover, the stability to chymotrypsin result in the series on trypsin, chymotrypsin (pH 6.5, 1 h) is recorded as “stable”.
